G9a block: G9a (human) methyltransferase inhibition; Potency, µM (highest dose often 102 µM), inactives show top-dose activity, negative = inhibition, usual class: inhibitors; hit rate 8.8% among 350,000; Q96KQ7; G9a H3K9 monomethylation, AlphaScreen, 2 h; AID 504332; note: potency is the fitted concentration of half-maximal effect; % is set by controls: 0 for no effect and ±100 for the full control effect; nearly all actives have a fitted effect of over 75% in size
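Signal arises when biotinylated H3K9 peptide, once monomethylated, bridges streptavidin donor and antibody-captured acceptor beads. Enzyme at 20 nM was preincubated 15 min with test compounds; peptide 500 nM and SAM 20 uM then reacted for 2 h.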
miR-21 FLuc: miR-21 reporter, rising signal; HeLa miR-21 FLuc reporter, luciferase, 48 h; Potency, µM (titrated, usually from 38.3 µM), without a hit: top-dose reporter change, positive = more light; AID 2288; 340,000 tested, under 10 active; active = well fitted rising curve with a large enough effect; inconclusive = small, poorly fitted or top-dose-only effect; inactive = no such curve, though single readings can be large or run the other way;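 further: % of control where 0% means no effect; miR-21 action dims this reporter so a rising signal means less miR-21 action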
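HeLa cells stably expressing CMV-driven firefly luciferase with a downstream miR-21 binding sequence, endogenously expressing miR-21, were treated with titrations (up to about 40uM final) for 48 hours at 37 degree Celsius. Luciferase luminescence was read after lysis.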
JMJD2E inh: inhibitors of human JMJD2E histone demethylase. hit rate 1.6% among 230,000. Potency, µM (series often up to 57.1 µM), inactives show at the highest dose activity change, negative = inhibition, hits mostly inhibitors. B2RXH2. JMJD2E catalytic domain, FDH-coupled NADH fluorescence (FDH is formaldehyde dehydrogenase);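 note: potency is the fitted concentration of half-maximal effect; 0% = wells with enzyme and -100% = buffer wells without enzyme; nearly all actives have a fitted effect of over 50% in size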
ALDH1A1 block: inhibitors of human aldehyde dehydrogenase 1A1; hit rate 7.3% among 220,000; Purified ALDH1A1, NADH fluorescence, propionaldehyde substrate; Potency, µM (series often up to 75.3 µM), for inactives: at the highest dose activity, negative = inhibition, hits mostly inhibitors; active = well fitted inhibition curve with a large enough effect, not every such curve was filed as active; inconclusive = small, poorly fitted or top-dose-only effect, or another doubt; inactive = no such curve, though single readings can be large or run the other way;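 note: potency is the fitted concentration of half-maximal effect; plate controls were no enzyme wells and a reference inhibitor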
LMNA splice mod: changes lamin A minigene splicing in HeLa cells. Potency, µM (titrated, usually from 46.1 µM), for the others: at the top dose ratio change, negative = inhibition, usual class: inhibitors. HeLa LMNA splicing GFP/RFP minigene ratio, 48 h. AID 1487. hit rate 0.01% among 200,000; active = well fitted inhibition curve with a large enough effect in the signal ratio, with a control signal flat, not every such curve was filed as active; inconclusive = small, poorly fitted or top-dose-only effect, or effect the other way, or a change in a side signal; the % refers to the signal ratio; note: potency is the fitted concentration of half-maximal effect; % is set by controls: 0 for no effect and ±100 for the full control effect
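S3 HeLa stable clones carrying a lamin A-EGFP splicing minigene plus DsRed2 were seeded at 600 cells/well in Opti-MEM with 2% FBS, pin-dosed and incubated 48 h at 37°C. Acumen cytometry (488 nm) gave the GFP/RFP total-intensity ratio.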
Sfp PPTase inh: qHTS Assay for Inhibitors of Bacillus subtilis Sfp phosphopantetheinyl transferase (PPTase); Biochemical Sfp PPTase activity, qHTS; Potency, µM, for inactives: max response, negative = inhibition, actives largely listed as inhibitors; actives 3.5% (n = 310,000); AID 1490, 2009; active = well fitted inhibition curve with a large enough effect; inconclusive = small, poorly fitted or top-dose-only effect, or another doubt; inactive = no such curve, though single readings can be large or run the other way;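 note: the enzyme is Sfp with the accession as filed and its product quenches rhodamine fluorescence; potency is the fitted concentration of half-maximal effect; 0% = enzyme reaction without inhibitor and -100% = no enzyme wells; top concentration of the series not given in the record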
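Sfp 15 nM + cpd, 15 min RT; start w/ rhodamine-CoA 5 uM, BHQ-2-YbbR 12.5 uM (final); 50 mM Hepes pH 7.6, 10 mM MgCl2, 0.01% NP-40, 0.01% BSA; read 525/598 nm at 0 and 30 min.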
* = called active by the depositor; u = inconclusive; x = no result; ! = repeats disagree; [ ] = remark or other dose. Sampled rows, rich in hits. Any-hit rate of the full collection: about 13%. Unless noted, calls come from the whole dose curve; as a rule, active = well fitted curve in the direction sought with a large enough effect; inconclusive = small, poorly fitted or top-dose-only effect, or another doubt; inactive = no such curve, though single readings can be large; an effect the other way counts as inactive or inconclusive.

SMILES	G9a block	miR-21 FLuc	JMJD2E inh	ALDH1A1 block	LMNA splice mod	Sfp PPTase inh
COc1cc(OC)c2c(-c3ccccc3)cc(=O)oc2c1C(CCN1CCCCC1)c1ccc2c(c1)OCO2 (stereo not given)	1%[12.7 µM]	24%	4%	x	x	13µM*!
COc1cc(OC)c2c(-c3ccccc3)cc(=O)oc2c1C(CCN1CCOCC1)c1ccc(N(C)C)cc1 (stereo not given)	14µM*	x	x	-6%[50.4 µM]	x	-21%
O=C(NC(=S)N(CCO)Cc1ccccc1)c1ccc(F)cc1Cl	21%[2.33 µM]	-2%	x	x	x	9%
Cc1nc2nc(SCC(=O)NCCc3ccccc3)nn2c(C)c1Cc1c(F)cccc1Cl	-5%[59 µM]	-13%	x	x	x	x
Nc1nc(-c2ccc(-n3nncc3-c3ccco3)cc2)cs1	-40%[59 µM]	-14%	-4%	x	x	-3%
CC(C)(C)c1cnnn1-c1ccc(-c2csc(N)n2)cc1	-48%[59 µM]	-18%	-12%	18µM*	-16%	-16%
CCN(CC)CCNC(=O)/C(=N\O)c1ccccn1	-20%[12.7 µM]	5%	-4%	16%	x	-28%
CN(C)CCCNCCCNC(=O)/C(=N\O)c1ccccn1	7.9µM*	-3%	190%	5%	-9%	u
CCCc1cc(C(=O)N2CCCC(C(=O)c3cc(C)c(OC)c(C)c3)C2)n(C)n1 (stereo not given)	x	4%	x	x	x	3%
CCOc1ccc(S(=O)(=O)N2CCOCC2)cc1NC(=O)CN1C(=O)NC(CC)(c2ccccc2)C1=O (stereo not given)	2%	-4%	x	x	x	15%
O=C(CN1C(=O)C2CC=CCC2C1=O)Nc1ccccc1N1CCCC1 (stereo not given)	50µM*	x	x	x	x	x
CCC1(c2ccccc2)NC(=O)N(CC(=O)Nc2cc(Cl)ccc2N2CCOCC2)C1=O (stereo not given)	35µM*	x	x	x	x	x
CCC1(c2ccccc2)NC(=O)N(CC(=O)Nc2ccc(N3CCCC3)cc2C)C1=O (stereo not given)	1.8µM*	x	x	x	x	x
CCC1(c2ccc(F)cc2)NC(=O)N(CC(=O)NC2CC2)C1=O (stereo not given)	1%	x	x	x	x	x
Cc1cc(N2CCCC2)ccc1NC(=O)CN1C(=O)NC(C)(c2ccccc2)C1=O (stereo not given)	x	2%	x	x	x	-11%
CCC1(c2ccc(F)cc2)NC(=O)N(CC(=O)c2cc(C)n(C3CC3)c2C)C1=O (stereo not given)	50µM*	x	x	x	x	x
COC(=O)[C@H](Cc1c[nH]c2ccccc12)NC(=O)NCc1ccc(OC)cc1	-3%	5%	x	x	x	11%
CCC1(c2ccccc2)NC(=O)N(CC(=O)Nc2ccc(S(=O)(=O)NC3=NCCCCC3)cc2)C1=O (stereo not given)	50µM*	x	x	x	x	x
CCC1(c2ccccc2)NC(=O)N(CC(=O)Nc2ccc(Cl)c(S(=O)(=O)N3CCCCC3)c2)C1=O (stereo not given)	-4%[12.7 µM]	x	x	x	x	x
CC1Cc2ccccc2N1CC(=O)Nc1cccc(S(N)(=O)=O)c1 (stereo not given)	0%	2%	-6%	-11%	u	5%

Grouped by structure, the entries above with a Cl atom (4)
SMILES	G9a block	miR-21 FLuc	JMJD2E inh	ALDH1A1 block	LMNA splice mod	Sfp PPTase inh
O=C(NC(=S)N(CCO)Cc1ccccc1)c1ccc(F)cc1Cl	21%[2.33 µM]	-2%	x	x	x	9%
Cc1nc2nc(SCC(=O)NCCc3ccccc3)nn2c(C)c1Cc1c(F)cccc1Cl	-5%[59 µM]	-13%	x	x	x	x
CCC1(c2ccccc2)NC(=O)N(CC(=O)Nc2cc(Cl)ccc2N2CCOCC2)C1=O (stereo not given)	35µM*	x	x	x	x	x
CCC1(c2ccccc2)NC(=O)N(CC(=O)Nc2ccc(Cl)c(S(=O)(=O)N3CCCCC3)c2)C1=O (stereo not given)	-4%[12.7 µM]	x	x	x	x	x

Continued.
SMILES	G9a block	miR-21 FLuc	JMJD2E inh	ALDH1A1 block	LMNA splice mod	Sfp PPTase inh
CCC1(c2ccccc2)NC(=O)N(CC(=O)NNC(=O)c2ccc(F)cc2)C1=O (stereo not given)	6.3µM*	x	x	x	x	x
CC1CCc2ccccc2N1CC(=O)Nc1cccc(S(=O)(=O)N2CCCC2)c1 (stereo not given)	20µM*	x	x	x	x	x
CCC1(c2ccccc2)NC(=O)N(CC(=O)Nc2cccc(S(=O)(=O)N3CCCCC3)c2)C1=O (stereo not given)	45µM*	x	x	x	x	x
CC1(c2ccccc2)NC(=O)N(CC(=O)Nc2ccccc2N2CCCCC2)C1=O (stereo not given)	8%[0.501 µM]	x	x	x	x	x
CCC1(c2ccccc2)NC(=O)N(CC(=O)Nc2ccccc2N2CCCC2)C1=O (stereo not given)	40µM*	x	x	x	x	x
CC1(c2ccccc2)NC(=O)N(CC(=O)Nc2ccc(N3CCOCC3)cc2N2CCOCC2)C1=O (stereo not given)	56µM*	x	x	x	x	x

From PubChem
